Read-outs that look alike come from different tables or passages of the source.
Experiments:
[1] = concentrations greater than 0.15 mg/mL in water
[2] = mouse
[3] = i.v. 0.05 mmol/kg, 3 minutes, ± S.D.
[4] = i.v. 0.05 mmol/kg, 15 minutes, approximately

mono-sulfonate, monoamino-PEGylated silicon phthalocyanine [La Jolla Blue II]
passage through 0.2 μm filter [1]: did pass through 0.2 μm filter
passage through membrane filter of MWCO 30 KD [1]: did not pass through a membrane filter of MWCO 30 KD
biodistribution and excretion pattern ([2]; i.v. 0.05 mmol/kg): more consistent with that of a blood pool agent than an extracellular fluid agent
Liver level, change over study ([2]; i.v. 0.05 mmol/kg, 3 minutes to 7 days): did not change significantly during the 7 days
Blood level (of the administered dose) [2, 3]: 15.71%±2.43
Kidney level (of the administered dose) [2, 3]: 1.37%±0.11
Liver level (of the administered dose) [2, 3]: 2.41%±0.82
Kidney level (of the administered dose) [2, 4]: ≤ 1%
Lung level (of the administered dose) [2, 4]: ≤ 1%
Lung level (of the administered dose) ([2]; i.v. 0.05 mmol/kg, 60 minutes, ± S.D.): 1.09%±0.20
Cumulative recovery in the urine ([2]; i.v. 0.05 mmol/kg, 2 hours, n=8): 45.52%±4.92
Blood level (of the administered dose) ([2]; i.v. 0.05 mmol/kg, 4 hours, ± S.D.): 12.64%±3.39
Cumulative recovery in the urine ([2]; i.v. 0.05 mmol/kg, 24 hours, n=6): approximately 76%
Blood level (of the administered dose) ([2]; i.v. 0.05 mmol/kg, 24 hours, ± S.D.): 2.79%±0.14
Blood level (of the administered dose) ([2]; i.v. 0.05 mmol/kg, 7 days, ± S.D.): 0.05%±0.00
Accounted for in feces ([2]; i.v. 0.05 mmol/kg, after 7 days): less than 1%
Recovered in urine ([2]; i.v. 0.05 mmol/kg, after 7 days, n=3): 78.01%±10.10
in vivo metabolism of the ring structure ([2]; inferred from fluorescence detectable for up to 7 days): no significant in vivo metabolism of the ring structure

From patent US6010681A, “Biodegradable blood-pool contrast agents” (Nycomed Salutar, Inc., priority 1994, dated 2000)
